According to patent publication US20080317752A1, “Inhibition of Tumorigenesis by Inhibition of a6b4 Integrin” (Sloan-Kettering Institute for Cancer Research, priority 2005, published 2008):

Tested on: mammary tumors of MMTV-Neu (YD) mice
Test: Treatment of tumor-bearing MMTV-Neu(YD) mice, tumor volume by caliper
Format: in vivo
Conditions: Neu(YD)/b4-WT and Neu(YD)/b4-1355T mice; single dose 10 mg/Kg, day 21

SMILES: COc1cccc2c1C(=O)c1c(O)c3c(c(O)c1C2=O)C[C@@](O)(C(=O)CO)C[C@@H]3O[C@H]1C[C@H](N)[C@H](O)[C@H](C)O1 [Doxorubicin]
- growth rate of tumors: reduced the growth rate of tumors in Neu(YD)/b4-WT and Neu(YD)/b4-1355T mice by a similar extent
